Assay results: patent publication US11926626B2, “Heterocyclic GLP-1 agonists” (Gasherbrum Bio, Inc., priority 2020, dated 2024)

Chains of the proteins cited; added tags and fusions are not shown. Residues count along the entry.
UniProt P43220, 24-463: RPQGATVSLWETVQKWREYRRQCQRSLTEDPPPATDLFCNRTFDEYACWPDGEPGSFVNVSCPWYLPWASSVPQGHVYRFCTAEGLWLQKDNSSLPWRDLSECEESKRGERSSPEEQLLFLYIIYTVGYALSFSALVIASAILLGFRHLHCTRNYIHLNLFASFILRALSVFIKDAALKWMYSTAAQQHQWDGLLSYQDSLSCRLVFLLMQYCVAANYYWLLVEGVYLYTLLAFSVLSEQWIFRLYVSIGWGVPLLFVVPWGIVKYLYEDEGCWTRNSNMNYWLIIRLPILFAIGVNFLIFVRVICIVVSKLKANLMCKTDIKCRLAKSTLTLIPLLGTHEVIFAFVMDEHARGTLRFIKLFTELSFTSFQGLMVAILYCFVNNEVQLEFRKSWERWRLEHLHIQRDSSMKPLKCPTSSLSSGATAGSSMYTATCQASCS

Target: GLP-1 Receptor (Homo sapiens, UniProt P43220)
Experiment: GLP-1R agonist cAMP stimulation assay (HEK293/GLP1R/CRE-Luc cells, HTRF cAMP)
Assay type: cell-based
Description: Activation of GLP-1 receptor is known to stimulate cyclic AMP (cAMP) production in cells which indicates primary coupling to the Gαs subunit of the G protein heterotrimeric complex.
To optimize functional activity directed toward Gαs coupling, a HEK293/CRE-Luc cell line developed by HDB stably expressing the GLP-1 Receptor was used. […] 1×10^5 cells/mL HEK293/GLP1R/CRE-LUC(HD Biosciences) cell suspensions prepared with assay buffer[DPBS containing 0.5 mM IBMX (Sigma, Cat #I5879) and 0.1% BSA (GENVIEW, Cat #FA016-100g)], 10 uL cell suspensions were added to each well of previous generated assay plate which already contains 50 nl compound at 200×concentration using ThermoFisher Multidrop Combi (1000 cells/well). Seal the plate and incubate at 37° C. with 5% CO2 for 30 min.
After incubation the cAMP assay signal was generated using cAMP dynamic 2 Kit (Cisbio). 5 μL cAMP-d2 working solution was added to each well, followed with 5 μL Anti-cAMP antibody-cryptate working solution added to each well using ThermoFisher Multidrop Combi. Incubate at room temperature for 1 hour protected from light.

| Compound | GLP1R cAMP Stimulation DR: pEC50 | EC50 (read-out: GLP1R cAMP Stimulation DR: EC50) [nM] |
| --- | --- | --- |
| O=C(O)c1ccc2nc(CN3CCC(Oc4cccc(Cc5ccccc5)n4)CC3)n(C[C@@H]3CCO3)c2n1 [Compound 123a, 2-({4-[(6-benzylpyridin-2-yl)oxy]piperidin-1-yl}methyl)-3-{[(2S)-oxetan-2-yl]methyl}-3H-imidazo[4,5-b]pyridine-5-carboxylic acid] | 8.8 | – |
| O=C(O)c1ccc2nc(CN3CCC(Oc4ccccc4Cc4ccc(Cl)cc4F)CC3)n(C[C@@H]3CCO3)c2n1 [Compound 107a, (S)-2-((4-(2-(4-Chloro-2-fluorobenzyl)phenoxy)piperidin-1-yl)methyl)-3-(oxetan-2-ylmethyl)-3H-imidazo[4,5-b]pyridine-5-carboxylic acid] | 6.7 | – |
| Cc1cn(Cc2ccc(Cl)cc2F)nc1C(=O)N1CCC(Cc2nc3ccc(C(=O)O)nc3n2C[C@@H]2CCO2)CC1 [Compound 102a, (S)-2-((1-(1-(4-chloro-2-fluorobenzyl)-4-methyl-1H-pyrazole-3-carbonyl)piperidin-4-yl)methyl)-3-(oxetan-2-ylmethyl)-3H-imidazo[4,5-b]pyridine-5-carboxylic acid] | 6.75 | – |
| O=C(O)c1ccc2nc(CC3CCN(C(=O)c4ccn(Cc5ccc(Cl)cc5F)n4)CC3)n(C[C@@H]3CCO3)c2n1 [Compound 101a, (S)-2-((1-(1-(4-chloro-2-fluorobenzyl)-1H-pyrazole-3-carbonyl)piperidin-4-yl)methyl)-3-(oxetan-2-ylmethyl)-3H-imidazo[4,5-b]pyridine-5-carboxylic acid] | 6.54 | – |
| O=C(O)c1ccc2nc(CN3CCC(Oc4cccc(Oc5ccc(Cl)cc5F)n4)CC3)n(C[C@@H]3CCO3)c2n1 [Compound 118a, 2-[(4-{[6-(4-chloro-2-fluorophenoxy)pyridin-2-yl]oxy}piperidin-1-yl)methyl]-3-{[(2S)-oxetan-2-yl]methyl}-3H-imidazo[4,5-b]pyridine-5-carboxylic acid] | 7.5 | – |
| O=C(O)c1ccc2nc(CC3CCN(Cc4nc(Cc5ccc(Cl)cc5F)cs4)CC3)n(C[C@@H]3CCO3)c2n1 [Compound 105a, (S)-2-((1-((4-(4-Chloro-2-fluorobenzyl)thiazol-2-yl)methyl)piperidin-4-yl)methyl)-3-(oxetan-2-ylmethyl)-3H-imidazo[4,5-b]pyridine-5-carboxylic acid] | 6.3 | – |
| C[C@H]1CN(C(=O)c2nc(Cc3ccc(Cl)cc3F)cs2)CCN1Cc1nc2ccc(C(=O)O)nc2n1C[C@@H]1CCO1 [Compound 108a, 2-(((S)-4-(4-(4-Chloro-2-fluorobenzyl)thiazole-2-carbonyl)-2-methylpiperazin-1-yl)methyl)-3-(((S)-oxetan-2-yl)methyl)-3H-imidazo[4,5-b]pyridine-5-carboxylic acid] | 8.92 | 1.2 |
| O=C(O)c1ccc2nc(CN3CCC(Oc4cccc(Cc5ccc(Cl)cc5F)n4)CC3)n(C[C@@H]3CCO3)c2n1 [Compound 109a, (S)-2-((4-((6-(4-Chloro-2-fluorobenzyl)pyridin-2-yl)oxy)piperidin-1-yl)methyl)-3-(oxetan-2-ylmethyl)-3H-imidazo[4,5-b]pyridine-5-carboxylic acid] | 10.3 | – |
